Measurements from patent US8796267B2, “Oxazolidinone derivatives and methods of use” (Concert Pharmaceuticals, Inc., priority 2006, dated 2014).

Tests used:
[1] = chimpanzee urine, in words
[2] = in words

| amount of deuterated M4 metabolite versus linezolid M4 metabolite [1] | stabilization in primates [2] | Structure (SMILES) |
| --- | --- | --- |
| significantly lower | marked potentiation in the stabilization | [2H]C([2H])(NC(C)=O)[C@H]1CN(c2ccc(N3C([2H])([2H])C([2H])([2H])OC([2H])([2H])C3([2H])[2H])c(F)c2)C(=O)O1 [Compound 100] |
|  | marked potentiation in the stabilization | [2H]C1([2H])OC([2H])([2H])C([2H])([2H])N(c2ccc(N3C[C@H](CNC(C)=O)OC3=O)cc2F)C1([2H])[2H] [Compound 101] |
